The other results are listed elsewhere or left out.
T1: LIN28A (human?, UniProt Q9H9Z2 1-209)
T1 sequence: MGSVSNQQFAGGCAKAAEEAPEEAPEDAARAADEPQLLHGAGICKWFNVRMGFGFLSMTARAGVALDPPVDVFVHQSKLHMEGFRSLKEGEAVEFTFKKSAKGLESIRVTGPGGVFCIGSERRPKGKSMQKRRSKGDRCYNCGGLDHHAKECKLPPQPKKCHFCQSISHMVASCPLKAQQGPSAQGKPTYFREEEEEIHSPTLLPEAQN

T2: CIRBP (Homo sapiens, UniProt Q14011 1-172)
T2 sequence: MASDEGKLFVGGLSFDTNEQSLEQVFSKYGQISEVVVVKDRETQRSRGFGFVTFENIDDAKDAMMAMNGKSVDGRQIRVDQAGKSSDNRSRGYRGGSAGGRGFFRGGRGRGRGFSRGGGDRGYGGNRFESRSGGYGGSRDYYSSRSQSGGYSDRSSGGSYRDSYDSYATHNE

T3: DHX36 (Homo sapiens, UniProt Q9H2U1 1-1008)
T3 sequence: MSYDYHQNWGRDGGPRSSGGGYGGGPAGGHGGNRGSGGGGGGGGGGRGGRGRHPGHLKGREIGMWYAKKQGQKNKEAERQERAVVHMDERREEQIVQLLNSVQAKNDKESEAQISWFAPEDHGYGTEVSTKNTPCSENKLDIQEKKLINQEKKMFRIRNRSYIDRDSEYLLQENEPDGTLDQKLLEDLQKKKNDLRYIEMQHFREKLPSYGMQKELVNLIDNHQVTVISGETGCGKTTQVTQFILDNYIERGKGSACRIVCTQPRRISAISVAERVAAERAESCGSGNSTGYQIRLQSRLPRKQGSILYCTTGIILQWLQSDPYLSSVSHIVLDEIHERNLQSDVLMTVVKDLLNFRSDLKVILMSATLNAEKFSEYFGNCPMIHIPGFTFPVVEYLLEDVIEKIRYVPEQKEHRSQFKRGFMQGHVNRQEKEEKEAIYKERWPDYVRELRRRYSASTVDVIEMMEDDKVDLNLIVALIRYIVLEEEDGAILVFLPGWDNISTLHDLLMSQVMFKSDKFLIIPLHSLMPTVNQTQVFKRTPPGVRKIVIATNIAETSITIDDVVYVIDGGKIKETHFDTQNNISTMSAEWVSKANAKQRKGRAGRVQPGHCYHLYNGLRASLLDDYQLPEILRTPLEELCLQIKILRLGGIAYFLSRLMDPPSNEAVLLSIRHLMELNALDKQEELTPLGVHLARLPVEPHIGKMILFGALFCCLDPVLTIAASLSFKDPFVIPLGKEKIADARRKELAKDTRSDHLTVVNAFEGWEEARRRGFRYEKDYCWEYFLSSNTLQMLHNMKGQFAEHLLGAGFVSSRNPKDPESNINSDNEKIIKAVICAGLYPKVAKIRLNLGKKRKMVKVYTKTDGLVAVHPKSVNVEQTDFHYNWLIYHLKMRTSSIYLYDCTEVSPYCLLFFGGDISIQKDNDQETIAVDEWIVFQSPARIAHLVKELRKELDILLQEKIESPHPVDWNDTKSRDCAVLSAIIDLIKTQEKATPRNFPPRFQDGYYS

B1: NEAT1_ParasoR_ID10 (structured_RNA)
RNA: GGGACAUAAAAUCUGUGGCGGCGUCUUUGGUGUACGAAGUUUCAGCCAUAUGUUUUCAAUUCUCUCAUUAUAUACCUAGGAGUAGAAUUACUGGGUCAUAUGGCUGAAGCUUCGUGCAC
B2: hsa-mir-1254-2 (structured_RNA)
RNA: GGGAGAAGGUACCCGUUCCCAAGCGAUGGGUGUACGAAGUUUCAGCCAGUGAGCUAUGAUCAUGUCCCUGGCUGAAGCUUCGUGCAC
B3: hsa-mir-2278 (structured_RNA)
RNA: GGGAGCUGGCUUGUCCGUUUGUUGGAAAGGUGUACGAAGUUUCAGCCUGGGGACUGUGUGGACUGGUAUCACCCAGGCUGAAGCUUCGUGCAC
B4: hsa-mir-4794 (structured_RNA)
RNA: GGGAAAGGUUACCGUGGUAAGAAGAACCGGUGUACGAAGUUUCAGCCUGUAUGUCCUAACAGUGCUUGUAGGCUGAAGCUUCGUGCAC
B5: hsa-mir-3683 (structured_RNA)
RNA: GGGAAUCAAGAACGGGGUAUGAAUUAUGGGUGUACGAAGUUUCAGCAUCAUCUCUCCCUUGGAUGCUGAAGCUUCGUGCAC
B6: NEAT1_ParasoR_ID19 (structured_RNA)
RNA: GGGAAAAGUGUCUAGUACGAAUGACCAUGGUGUACGAAGUUUCAGCCCCCUAGUCUUUGGUAACCUUUGUUAUACUGGUAAACUUUGUUGUGCUCUCUGUCUGUGUGAAUUUGCCUAUUCUAGGGGGCUGAAGCUUCGUGCAC
B7: hsa-mir-17 (structured_RNA)
RNA: GGGAAGAGGGCAGCUACGCCUUCGAAACGGUGUACGAAGUUUCAGCAGGUAGUGAUAUGUGCAUCUACUGCUGAAGCUUCGUGCAC
B8: hsa-mir-3178 (structured_RNA)
RNA: GGGAAGGUCAGAUUACGCAGUGGAACGGGGUGUACGAAGUUUCAGCAUCGGUCGAGAGCGUCCUGGCUGAUGCUGAAGCUUCGUGCAC
B9: hsa-mir-520g_520h (structured_RNA)
RNA: GGGAAAGACCAUAGCGAGCUUGGAAUAGGGUGUACGAAGUUUCAGCCUGUUUGUUGUCUGAGAAAAAACAGCUGAAGCUUCGUGCAC
B10: hsa-mir-1262 (structured_RNA)
RNA: GGGAGGCCUGCAUAAAACUCACUAGGUCGGUGUACGAAGUUUCAGCGGAUGAAAGUCAAAGAAUCCGCUGAAGCUUCGUGCAC
B11: hsa-mir-6732 (structured_RNA)
RNA: GGGAAAUAGGAUGGGGUCCCGAAAUCUAGGUGUACGAAGUUUCAGCCUGGCCAUCAGUGUGGGCUAACGCUGAAGCUUCGUGCAC
B12: hsa-mir-29c (structured_RNA)
RNA: GGGAAAUGGACGAAUAAGUAUAACGGCAGGUGUACGAAGUUUCAGCGUUCAGAGUCUGUUUUUGUCUAGCGCUGAAGCUUCGUGCAC
B13: hsa-mir-432 (structured_RNA)
RNA: GGGAAUUUGAGGGCGUCCAACGCACUAGGGUGUACGAAGUUUCAGCUGGGUGGAUCCUCUAUUUCCUUACGUGGGCCACUGGGCUGAAGCUUCGUGCAC

Experiments:
Experiment in all cases: FOREST: bead pull-down of RNA structure library v1, barcode microarray; U1A/LIN28A: 20 mM HEPES pH 7.5, 80 mM KCl, 20 mM NaCl, 10% glycerol, 2 mM DTT, 0.1 ug/uL BSA, 4 C; BG4/CIRBP/DHX36: 10 mM Tris-HCl pH 7.5, 100 mM KCl (or LiCl),; high values mean tight binding
LIN28A = target: T1, LIN28A
CIRBP = target: T2, CIRBP
DHX36 = target: T3, DHX36

Binder	binding signal (LIN28A) [z-score]	binding signal (CIRBP) [z-score]	binding signal (DHX36) [z-score]
B1	0.622	-0.882	0.489
B2	0.641	0.307	-0.459
B3	0.632	-0.719	0.62
B4	0.627	0.789	0.218
B5	0.617	-0.0781	-0.348
B6	0.633	-0.661	-0.382
B7	0.638	-1.16	0.802
B8	0.639	2.55	1.06
B9	0.624	-0.722	0.174
B10	0.644	0.142	-0.48
B11	0.628	1.1	0.484
B12	0.626	0.426	-0.00171
B13	0.643	0.49	0.606

Reference: article PMC7723054
